The record followed here is US6982260B1, “Quinazolines and their use for inhibiting cyclin-dependent kinase enzymes” (Warner-Lambert Company, priority 1999, dated 2006).

Experiment [1] addresses cdk2/A (Homo sapiens, UniProt P24941). The experiment is described as follows: cdk2/A kinase assay. It counts as biochemical. The conditions noted are these: 32P incorporation into retinoblastoma, 25° C., 15 minutes; read-out: Cdk2A IC50. How it is done: (§1) All components except the ATP were added to the wells, and the plate was placed on a plate mixer for 2 minutes. The reaction was begun by addition of [^32P]ATP, and the plate was incubated at 25° C. for 15 minutes. The reaction was terminated by addition of 0.1 mL of 20% TCA. The plate was kept at 4° C. for at least 1 hour to allow the substrate to precipitate. The wells were then washed five times with 0.2 mL of 10% TCA and ^32P incorporation determined with a beta plate counter (Wallac Inc., Gaithersburg, Md.).

The target of experiment [2] is cdk2/cyclinE (Homo sapiens, UniProt P24941). The experiment is described as follows: cdk2/cyclinE kinase assay. It counts as biochemical. The conditions noted are these: 32P incorporation into retinoblastoma, 25° C., 15 minutes; read-out: Cdk2E IC50. As for the experimental part: as §1

Regarding `COc1ccc2cnc(Nc3ccc(N4CCCC4)cc3)nc2c1C1CCCC1` [Example 24, (8-Cyclopentyl-7-methoxy-quinazolin-2-yl)-(4-pyrrolidin-1-yl-phenyl)-amine], the half-maximal inhibitory concentration (IC50) – broadly, the concentration that gives 50% inhibition – was 7.69 µM in experiment [1] and more than 5 µM in experiment [2].
